Measured values taken from patent US9150632B2 (Indiana University Research and Technology Corporation, priority 2009, dated 2015).

Sequences of proteins named here, by UniProt entry; tags and fusion partners are left off. Residues count along the entry.
UniProt P47871, 26-477: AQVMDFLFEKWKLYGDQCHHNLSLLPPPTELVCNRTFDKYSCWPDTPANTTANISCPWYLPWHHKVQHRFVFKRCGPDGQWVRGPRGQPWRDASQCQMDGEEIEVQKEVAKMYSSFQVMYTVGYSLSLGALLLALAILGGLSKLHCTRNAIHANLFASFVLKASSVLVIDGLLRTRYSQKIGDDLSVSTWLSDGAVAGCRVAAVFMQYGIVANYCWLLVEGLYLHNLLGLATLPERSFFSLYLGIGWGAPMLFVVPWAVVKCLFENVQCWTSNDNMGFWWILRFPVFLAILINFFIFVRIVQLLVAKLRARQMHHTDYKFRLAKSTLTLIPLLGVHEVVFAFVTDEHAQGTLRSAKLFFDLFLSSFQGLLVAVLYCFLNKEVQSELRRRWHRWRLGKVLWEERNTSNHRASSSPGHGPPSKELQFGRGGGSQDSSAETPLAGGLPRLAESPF
UniProt P43220, 24-463, species assumed: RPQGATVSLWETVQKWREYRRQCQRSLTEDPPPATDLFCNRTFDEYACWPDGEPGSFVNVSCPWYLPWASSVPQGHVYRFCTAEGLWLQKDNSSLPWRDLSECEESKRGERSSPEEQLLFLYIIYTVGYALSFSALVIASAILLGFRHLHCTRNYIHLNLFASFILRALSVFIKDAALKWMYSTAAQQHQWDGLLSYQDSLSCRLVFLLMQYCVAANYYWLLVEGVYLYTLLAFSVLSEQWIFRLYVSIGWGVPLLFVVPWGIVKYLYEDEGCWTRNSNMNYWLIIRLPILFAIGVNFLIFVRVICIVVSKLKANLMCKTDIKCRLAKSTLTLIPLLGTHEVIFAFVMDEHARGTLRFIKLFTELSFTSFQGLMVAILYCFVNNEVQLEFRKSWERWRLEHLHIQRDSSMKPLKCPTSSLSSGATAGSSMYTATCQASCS

Assays:
glucagon receptor = target: T1, glucagon receptor (Homo sapiens, UniProt P47871); experiment: Functional assay-cAMP synthesis, luciferase reporter in HEK293 cells, glucagon receptor; type: cell-based; settings: for % Activity of Glucagon: Table 21, relative to the native peptide; for Glucagon Receptor % relative activity: activity relative to the native hormone at the indicated receptor
T1 construct: expressed in transfected cells; host or cells: HEK293

GLP-1 receptor [1] = target: T2, GLP-1 receptor (Homo sapiens, UniProt P43220); settings: for % Activity of GLP-1: Table 21, relative to the native peptide; for GLP-1 Receptor % relative activity: activity relative to the native hormone at the indicated receptor
GIP receptor = target: T3, GIP receptor (Homo sapiens, UniProt P48546); experiment: Functional assay-cAMP synthesis, luciferase reporter in HEK293 cells, GIP receptor; type: cell-based; settings: for GIP Receptor % relative activity: activity relative to the native hormone at the indicated receptor; for agonist activity at the GIP receptor: text on Table 34
T3 construct: expressed in transfected cells; host or cells: HEK293
T3 sequence (P48546 22-466): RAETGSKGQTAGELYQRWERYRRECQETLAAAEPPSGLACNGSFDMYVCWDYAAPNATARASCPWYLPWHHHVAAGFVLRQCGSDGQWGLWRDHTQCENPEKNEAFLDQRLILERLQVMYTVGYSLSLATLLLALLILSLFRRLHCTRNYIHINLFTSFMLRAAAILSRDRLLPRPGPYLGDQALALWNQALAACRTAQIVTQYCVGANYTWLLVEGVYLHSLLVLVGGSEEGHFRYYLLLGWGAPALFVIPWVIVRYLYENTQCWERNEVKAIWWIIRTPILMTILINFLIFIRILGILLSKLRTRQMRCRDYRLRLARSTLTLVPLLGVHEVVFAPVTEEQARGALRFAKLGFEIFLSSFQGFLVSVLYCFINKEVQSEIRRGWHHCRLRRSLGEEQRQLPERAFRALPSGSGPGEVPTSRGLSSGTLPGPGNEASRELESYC

[2] = Body weight, body composition and food intake in diet-induced obesity (DIO) mice; type: in vivo
Protocol: […] 6 mice per group with initial average body weight of 44 g were tested. Body weight, body composition, food intake, and blood glucose levels were determined periodically.
Body weight was measured before injection and at 1, 3, 5, and 7 days post-injection.
(§1) Changes in body weight of and food intake by the mice were measured 0, 1, 3, 5, 7, 8, 10, 12, and 14 days after injection. Blood glucose levels of the mice were monitored throughout the 14 days. Glucose tolerance tests were performed by injecting a 25% glucose in saline solution 1 hour or 24 hours after administration of the acylated or pegylated peptide and measuring blood glucose levels at −60, 0, 15, 30, 60, or 120 min after the glucose injection.
The acylated glucagon analogs were as follows:
C57BI/6 mice were obtained from Jackson Laboratories and fed a diabetogenic diet from Research Diets, a high sucrose diet with 58% kcal from fat. Mice were single or group-housed on a 12:12-h light-dark cycle at 22° C. with free access to food and water. All studies were approved by and performed according to the guidelines of the Institutional Animal Care and Use Committee of the University of Cincinnati.
Whole body composition (fat and lean mass) was measured using NMR technology (EchoMRI, Houston, Tex.).
The peptides were administered daily for two weeks to 11 groups of 8 C57Bl/6 mice by subcutaneous injection at a dose of 10 or 30 nmol/kg. The initial average body weight of the mice was 51 g. The mice were 6 months old and had been on a diabetogenic diet for 4 months.
The peptides were then tested in vivo for their effects on body weight, food intake, blood glucose levels, and fat mass in eight-month old C57B1/6 mice that had been on a diabetogenic diet for 6 months. Eleven groups of eight mice were subcutaneously injected with 10 nmol/kg of peptide daily for one week.
Nine groups of 8 DIO mice (strain: C57B16 WT) were subcutaneously injected daily for 7 days with 10 nmol/kg of one of the peptides of Table 37. The average initial body weight of the mice was 57.6 g. The mice were approximately 10 months old and had been on a high fat diet for about 8 months.

[3] = Blood glucose and glucose tolerance test in DIO mice; type: in vivo; settings: C57Bl/6 mice on diabetogenic diet, s.c. daily
Protocol: A saline solution comprising 25% (v/v) glucose was injected at a dose of 1.5 g/kg of body weight at the 0 min time point. Blood glucose levels were measured at the −15, 0, 15, 30, 60, and 120 min time points.
A saline solution comprising 25% (v/v) glucose was injected at a dose of 1.5 g/kg of body weight at the 0 min time point. Blood glucose levels were measured at the 0, 15, 30, 60, and 120 min time points.
as §1
For the determination of glucose tolerance, mice were subjected to 6 h of fasting and injected intraperitoneally (i.p.) with 2 g glucose/kg body wt (50% D-glucose (Sigma) in 0.9% saline) for the glucose tolerance test (GTT). Tail blood glucose levels (mg/dl) were measured by using a hand-held glucometer (TheraSense Freestyle) before (0 min) and at 15, 30, 60, 90, and 120 min after injection.

GLP-1 receptor [4] = target: T2, GLP-1 receptor; experiment: cell-based
[5] = Table 35, relative to the native hormone
[6] = Table 36, relative to the native hormone
[7] = C57Bl/6 mice on diabetogenic diet, s.c. 10 nmol/kg daily for one week

SMILES | % Activity of Glucagon (glucagon receptor) [%] | % Activity of GLP-1 (GLP-1 receptor [1]) [%] | EC50 (glucagon receptor) [nM] | Glucagon Receptor % relative activity (glucagon receptor) [%] | GIP Receptor % relative activity (GIP receptor) [%] | agonist activity at the GIP receptor (GIP receptor) | GLP-1 Receptor % relative activity (GLP-1 receptor [1]) [%] | other results
CCCCCCCCCCCCCC(=O)NCCCC[C@H](NC(=O)[C@H](CC(=O)O)NC(=O)[C@H](CO)NC(=O)[C@@H](NC(=O)[C@H](Cc1ccccc1)NC(=O)[C@@H](NC(=O)CNC(=O)[C@H](CCC(N)=O)NC(=O)[C@H](CO)NC(=O)C(C)(C)c1cnc[nH]1)[C@@H](C)O)[C@@H](C)O)C(=O)N[C@@H](CO)C(=O)N[C@@H](CCCCN)C(=O)N[C@@H](Cc1ccc(O)cc1)C(=O)N[C@@H](CC(C)C)C(=O)N[C@@H](CC(=O)O)C(=O)N[C@H]1CCC(=O)NCCCC[C@@H](C(=O)N[C@@H](CC(=O)O)C(=O)N[C@@H](Cc2ccccc2)C(=O)N[C@H](C(=O)N[C@@H](CCC(N)=O)C(=O)N[C@@H](Cc2c[nH]c3ccccc23)C(=O)N[C@@H](CC(C)C)C(=O)N[C@@H](CCSC)C(=O)N[C@@H](CC(N)=O)C(=O)N[C@H](C(N)=O)[C@@H](C)O)C(C)C)NC(=O)[C@H](C)NC(=O)[C@H](CCCNC(=N)N)NC(=O)[C@H](CCCNC(=N)N)NC1=O [DMIA1, K10(C14), [E16/K20]-Gluc Amide] | 203.7 | 30 |  |  |  |  |  | 
CCCCCCCCCCCCCCCC(=O)NCCCC[C@H](NC(=O)[C@H](CC(=O)O)NC(=O)[C@H](CO)NC(=O)[C@@H](NC(=O)[C@H](Cc1ccccc1)NC(=O)[C@@H](NC(=O)CNC(=O)[C@H](CCC(N)=O)NC(=O)[C@H](CO)NC(=O)C(C)(C)c1c[nH]cn1)[C@@H](C)O)[C@@H](C)O)C(=O)N[C@@H](CO)C(=O)N[C@@H](CCCCN)C(=O)N[C@@H](Cc1ccc(O)cc1)C(=O)N[C@@H](CC(C)C)C(=O)N[C@@H](CC(=O)O)C(=O)N[C@H]1CCC(=O)NCCCC[C@@H](C(=O)N[C@@H](CC(=O)O)C(=O)N[C@@H](Cc2ccccc2)C(=O)N[C@H](C(=O)N[C@@H](CCC(N)=O)C(=O)N[C@@H](Cc2c[nH]c3ccccc23)C(=O)N[C@@H](CC(C)C)C(=O)N[C@@H](CCSC)C(=O)N[C@@H](CC(N)=O)C(=O)N[C@H](C(N)=O)[C@@H](C)O)C(C)C)NC(=O)[C@H](C)NC(=O)[C@H](CCCNC(=N)N)NC(=O)[C@H](CCCNC(=N)N)NC1=O [DMIA1, K10(C16), [E16/K20]-Gluc Amide] | 392 | 100 |  |  |  |  |  | 
CCCCCCCCCCCCCCCCCC(=O)NCCCC[C@H](NC(=O)[C@H](CC(=O)O)NC(=O)[C@H](CO)NC(=O)[C@@H](NC(=O)[C@H](Cc1ccccc1)NC(=O)[C@@H](NC(=O)CNC(=O)[C@H](CCC(N)=O)NC(=O)[C@H](CO)NC(=O)C(C)(C)c1c[nH]cn1)[C@@H](C)O)[C@@H](C)O)C(=O)N[C@@H](CO)C(=O)N[C@@H](CCCCN)C(=O)N[C@@H](Cc1ccc(O)cc1)C(=O)N[C@@H](CC(C)C)C(=O)N[C@@H](CC(=O)O)C(=O)N[C@H]1CCC(=O)NCCCC[C@@H](C(=O)N[C@@H](CC(=O)O)C(=O)N[C@@H](Cc2ccccc2)C(=O)N[C@H](C(=O)N[C@@H](CCC(N)=O)C(=O)N[C@@H](Cc2c[nH]c3ccccc23)C(=O)N[C@@H](CC(C)C)C(=O)N[C@@H](CCSC)C(=O)N[C@@H](CC(N)=O)C(=O)N[C@H](C(N)=O)[C@@H](C)O)C(C)C)NC(=O)[C@H](C)NC(=O)[C@H](CCCNC(=N)N)NC(=O)[C@H](CCCNC(=N)N)NC1=O [DMIA1, K10(C18), [E16/K20]-Gluc Amide] | 42.3 | 136 |  |  |  |  |  | 
CCCCCCCCCCCCCC(=O)NCCCC[C@H](NC(=O)[C@H](CO)NC(=O)[C@@H]1CCCN1C(=O)[C@@H]1CCCN1C(=O)[C@@H]1CCCN1C(=O)[C@H](C)NC(=O)CNC(=O)[C@H](CO)NC(=O)[C@H](CO)NC(=O)[C@@H]1CCCN1C(=O)CNC(=O)CNC(=O)[C@H](CC(N)=O)NC(=O)[C@H](CCSC)NC(=O)[C@H](CC(C)C)NC(=O)[C@H](Cc1c[nH]c2ccccc12)NC(=O)[C@H](CS)NC(=O)[C@@H](NC(=O)[C@H](Cc1ccccc1)NC(=O)[C@H](CCC(=O)O)NC(=O)[C@H](CCCCN)NC(=O)[C@H](C)NC(=O)[C@H](C)NC(=O)[C@H](CCC(N)=O)NC(=O)[C@H](CCC(=O)O)NC(=O)[C@H](CC(=O)O)NC(=O)[C@H](CC(C)C)NC(=O)[C@H](Cc1ccc(O)cc1)NC(=O)[C@H](CCCCN)NC(=O)[C@H](CO)NC(=O)[C@H](Cc1ccc(O)cc1)NC(=O)[C@H](CC(=O)O)NC(=O)[C@H](CO)NC(=O)[C@@H](NC(=O)[C@H](Cc1ccccc1)NC(=O)[C@@H](NC(=O)CNC(=O)[C@H](CCC(N)=O)NC(=O)C(C)(C)NC(=O)[C@@H](N)Cc1c[nH]cn1)[C@@H](C)O)[C@@H](C)O)[C@@H](C)CC)C(N)=O [mt-345] |  |  | 0.0183 | 192.90 | 4.99 | exceptionally potent activity | 152.78 | % Relative activity at the Receptor for Glucagon (glucagon receptor; [5]): 193%; % Relative activity at the Receptor for GIP (GIP receptor; [5]): 5%; food intake ([2]; C57Bl/6 mice on diabetogenic diet, s.c. daily for two weeks): lowest food intake; total change (decrease) in body weight ([2]; C57Bl/6 mice on diabetogenic diet, s.c. daily for two weeks, 10 nmol/kg, Day 14): around 20%; blood glucose levels on Day 7 [3]: total decrease in blood glucose levels; % Relative activity at the Receptor for GLP-1 (GLP-1 receptor [1]; [5]): 153%
CCCCCCCCCCCCCCCC(=O)NCCCC[C@H](NC(=O)[C@H](CO)NC(=O)[C@@H]1CCCN1C(=O)[C@@H]1CCCN1C(=O)[C@@H]1CCCN1C(=O)[C@H](C)NC(=O)CNC(=O)[C@H](CO)NC(=O)[C@H](CO)NC(=O)[C@@H]1CCCN1C(=O)CNC(=O)CNC(=O)[C@H](CC(N)=O)NC(=O)[C@H](CCSC)NC(=O)[C@H](CC(C)C)NC(=O)[C@H](Cc1c[nH]c2ccccc12)NC(=O)[C@H](C)NC(=O)[C@@H](NC(=O)[C@H](Cc1ccccc1)NC(=O)[C@H](CCC(=O)O)NC(=O)[C@H](CCCCN)NC(=O)[C@H](C)NC(=O)[C@H](C)NC(=O)[C@H](CCC(N)=O)NC(=O)[C@H](CCC(=O)O)NC(=O)[C@H](CC(=O)O)NC(=O)[C@H](CC(C)C)NC(=O)[C@H](Cc1ccc(O)cc1)NC(=O)[C@H](CCCCN)NC(=O)[C@H](CO)NC(=O)[C@H](Cc1ccc(O)cc1)NC(=O)[C@H](CC(=O)O)NC(=O)[C@H](CO)NC(=O)[C@@H](NC(=O)[C@H](Cc1ccccc1)NC(=O)[C@@H](NC(=O)CNC(=O)[C@H](CCC(N)=O)NC(=O)C(C)(C)NC(=O)[C@@H](N)Cc1c[nH]cn1)[C@@H](C)O)[C@@H](C)O)[C@@H](C)CC)C(N)=O [mt-364] |  |  | 0.0183 | 349.97 | 15.66 | exceptionally potent activity | 354.68 | % Relative activity at the Receptor for Glucagon (glucagon receptor; [6]): 349.97%; % Relative activity at the Receptor for Glucagon (glucagon receptor; Table 37): 349.97%; % Relative activity at the Receptor for GIP (GIP receptor; [6]): 15.66%; % Relative activity at the Receptor for GIP (GIP receptor; Table 37): 15.66%; decrease in body weight (weight loss) [2, 7]: greater than 15%; fat mass [2, 7]: less than the fat mass of mice injected with vehicle only; decrease in body weight on Day 7 ([2]; DIO mice, s.c. daily for 7 days, 10 nmol/kg): ~20%; % Relative activity at the Receptor for GLP-1 (GLP-1 receptor [1]; [6]): 354.68%; % Relative activity at the Receptor for GLP-1 (GLP-1 receptor [1]; Table 37): 354.68%; EC50 (GLP-1 receptor [4]): 7 pM

Like-named read-outs stand apart in the source and are kept apart here.
